From PubChem BioAssay AID648 (SRMLSC, 2007) come the findings set out here.

Only a part is listed here, and it is no random draw. Active and inactive are the calls of the source.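 Rule for the calls: active = viability at or below 30%; inactive = viability above 30%.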

A short description of this experiment: endothelial cell growth inhibition – HUVEC, 384-well, primary screen (AID 648).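 Note: 100% = median luminescence of DMSO-only cell control wells on each plate.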 Conditions: HUVEC proliferation, CellTiter-Glo luminescence, 72 h; hits give low values; screened at 10 µM (by protocol). (In general: In ATP-based viability assays light output follows the ATP content of the culture.)
In general, viability refers to a read-out of living cells in per cent, often relative to untreated cells. As to `CP(=S)(Nn1cnnc1)Oc1ccccc1` (configuration not stated), the viability was inactive: 89.7%.
The same measure for `CP(=O)(Nc1ccccn1)Oc1ccc(Cl)cc1` (configuration not stated): inactive: 93.9%.
For the molecule `CCOP(C)(=S)SCC(=O)NC(C)C(=O)O` (configuration not stated), the viability was inactive: 102%.
Turning to `CP(=O)(NC(=O)Nc1ccccc1)Oc1ccccc1` (configuration not stated), the viability is inactive: 98.2%.
The same measure for `COc1ccc(OP(C)(=O)Nc2cccc(F)c2)cc1` (configuration not stated): inactive: 102%; for `COc1ccccc1OP(C)(=O)Nc1ccc(C)cc1` (configuration not stated): inactive: 102%.
The same measure for `Cc1ccc(NP(C)(=O)Oc2ccccc2)c(C)c1` (configuration not stated): inactive: 97%; for `Cc1cc(C)cc(OP(C)(=O)Nc2ccccn2)c1` (configuration not stated): inactive: 95.1%.
The same measure for `Cc1ccc(C)c(NP(C)(=O)Oc2ccccc2)c1` (configuration not stated): inactive: 102%.
Turning to `Cc1cc(C)cc(OP(C)(=O)Nc2ccc(C)cc2C)c1` (configuration not stated), the viability was inactive: 89.3%.
The same measure for `Cc1nc2ccc3ccccc3c2s1.O=[N+]([O-])c1cc([N+](=O)[O-])c(O)c([N+](=O)[O-])c1`: inactive: 92.6%.
For the molecule `COc1ccccc1OP(C)(=O)Nc1c(C)cccc1C` (configuration not stated), the viability is inactive: 106%.
For the molecule `CN(C)CCOC(=O)C(O)(c1ccccc1)C1CCCCC1` (configuration not stated), the viability was inactive: 98.1%.
The result for `Cc1ccccc1NP(C)(=O)Nc1ccccc1C` reads inactive: 93.2%; that for `CP(=O)(Nc1ccc2c(c1)OCCO2)Oc1ccccc1` (configuration not stated), inactive: 94.5%; that for `CCOP(C)(=S)SCC(=O)NC(C)(CC)C(=O)O` (configuration not stated), inactive: 90.1%.
The same measure for `CP(=O)(Nc1ccccc1F)Oc1ccccc1` (configuration not stated): inactive: 101%; for `CP(=O)(Nc1ccccc1)Oc1ccc(F)cc1` (configuration not stated): inactive: 95.7%.
The result for `CCN(CC)CCCOC(=O)C(O)(c1ccccc1)C1CCCCC1` (configuration not stated) reads inactive: 86%; that for `Cc1nc2ccc3ccccc3c2o1.O=[N+]([O-])c1cc([N+](=O)[O-])c(O)c([N+](=O)[O-])c1`, inactive: 98.2%.
`COc1ccccc1OP(C)(=O)Nc1ccc(C)c(C)c1` (configuration not stated): the viability was inactive: 57.8%.
Take `CCc1ccc(OP(C)(=O)O)cc1`: the viability is inactive: 101%.
The result for `CP(=O)(Nc1ccccn1)Oc1ccccc1` (configuration not stated) reads inactive: 91%; that for `COc1ccccc1OP(C)(=O)Nc1ccc(C)cc1C` (configuration not stated), inactive: 94.2%.
The same measure for `Cc1c(NP(C)(=O)Oc2ccc(C(C)C)cc2)c(=O)n(-c2ccccc2)n1C` (configuration not stated): inactive: 100%.
On to `CN(C)CCOC(=O)C(O)(c1ccccc1)C1CCCC1` (configuration not stated), for which the viability is inactive: 103%.
Regarding `COc1ccc(OP(C)(=O)Nc2ccccn2)cc1` (configuration not stated), the viability was inactive: 101%.
The result for `CP(=O)(Nc1ccc(Cl)cc1)Oc1ccc(F)cc1` (configuration not stated) reads inactive: 96.7%; that for `CC(C)(C)c1ccc(OP(C)(=O)O)cc1`, inactive: 108%.
Consider `CP(=O)(Oc1ccccc1)N1CCOC1=O` (configuration not stated), for which the viability is inactive: 109%.
The same measure for `COc1ccccc1OP(C)(=O)Nc1c(C)n(C)n(-c2ccccc2)c1=O` (configuration not stated): inactive: 98.6%; for `CP(=O)(OC12CC3CC(CC(C3)C1)C2)OC12CC3CC(CC(C3)C1)C2`: inactive: 89.2%.
